Measurements published in patent US11325905B2, “Imidopiperidine compounds as inhibitors of human polynucleotide kinase phosphatase” (THE GOVERNORS OF THE UNIVERSITY OF ALBERTA, priority 2017, dated 2022).

Tested on: HCT116 cells
Experiment: Clonogenic survival assay, radio/chemosensitization
Type: cell-based, human
Procedure: Cells, seeded in 60-mm dishes 24 hours in advance, were treated with PNKP inhibitors for 9-14 consecutive days at nontoxic concentrations. […] Colonies consisting of 50 cells or more were counted using an automated colony counter (Oxford Optronix, Abingdon, UK).

## COc1ccccc1C(O)C1C=CC2C(=O)N(Cc3cccc4ccccc34)C(=O)C2N1Nc1ccc([N+](=O)[O-])cc1 (centres unmarked) [Compound A83B4C63, 2-[hydroxy(2-methoxyphenyl)methyl]-6-(naphthalen-1-ylmethyl)-1-[(4-nitrophenyl)amino]2H,4aH,7aH-pyrrolo[3,4-b]pyridine-5,7-dione]
Encapsulated inhibitor (micellar formulation), 24 h prior to radiation or irinotecan, 4 μM A12B4C50, 6 μM A83B4C63
  sensitivity of HCT116 cells to radiation and irinotecan: significantly increased the sensitivity
Free inhibitor, 4 μM A12B4C50, 6 μM A83B4C63, 24 h prior
  sensitization of HCT116 cells to radiation or irinotecan: able to sensitize
